Earlier results on one substance are cited in patent publication US20240181093A1 (ADENOBIO N.V, priority 2012, published 2024).

This series deals with myocardium. The settings on record: cited from earlier work.

Turning to boronic acid teboroxime [Tc99m-BATO], the “time of peak hepatic uptake following injection” value (excretion is enterohepatic) was “about 6 min”. Under “in vivo”, the “myocardial uptake, time” value is recorded as “after only one minute” and the “time after which washed-out from the myocardium” value is 3 min.
